Source: PubChem BioAssay (NCI)
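48-hour exposure; five concentrations; linearly interpolated endpoints. GI50 marks 50% less growth. TGI: total growth inhibition.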

Legend:
Experiment in all cases: NCI anticancer screen, dose series, 48 h
786-0 renal = system: 786-0 renal
A498 renal = system: A498 renal
A549 NSCLC = system: A549 NSCLC
ACHN renal = system: ACHN renal
BT-549 breast = system: BT-549 breast
CAKI-1 renal = system: CAKI-1 renal
CCRF-CEM leukemia = system: CCRF-CEM leukemia
COLO 205 colon = system: COLO 205 colon
DU-145 prostate = system: DU-145 prostate
EKVX NSCLC = system: EKVX NSCLC
HCC-2998 colon = system: HCC-2998 colon
HCT-116 colon = system: HCT-116 colon
HCT-15 colon = system: HCT-15 colon
HL-60(TB) leukemia = system: HL-60(TB) leukemia
HOP-62 NSCLC = system: HOP-62 NSCLC
HOP-92 NSCLC = system: HOP-92 NSCLC
HS 578T breast = system: HS 578T breast
HT29 colon = system: HT29 colon
IGROV1 ovarian = system: IGROV1 ovarian
K-562 leukemia = system: K-562 leukemia
KM12 colon = system: KM12 colon
LOX IMVI melanoma = system: LOX IMVI melanoma
M14 melanoma = system: M14 melanoma
MALME-3M melanoma = system: MALME-3M melanoma
MCF7 breast = system: MCF7 breast
MDA-MB-231 breast = system: MDA-MB-231 breast
MDA-MB-435 = system: MDA-MB-435
MDA-N = system: MDA-N
MOLT-4 leukemia = system: MOLT-4 leukemia
NCI-H226 lung = system: NCI-H226 lung
NCI-H23 lung = system: NCI-H23 lung
NCI-H322M lung = system: NCI-H322M lung
NCI-H460 lung = system: NCI-H460 lung
NCI-H522 lung = system: NCI-H522 lung
NCI/ADR-RES ovarian = system: NCI/ADR-RES ovarian
OVCAR-3 ovarian = system: OVCAR-3 ovarian
OVCAR-4 ovarian = system: OVCAR-4 ovarian
OVCAR-5 ovarian = system: OVCAR-5 ovarian
OVCAR-8 ovarian = system: OVCAR-8 ovarian
PC-3 prostate = system: PC-3 prostate
RPMI-8226 leukemia = system: RPMI-8226 leukemia
RXF 393 renal = system: RXF 393 renal
SF-268 CNS = system: SF-268 CNS
SF-295 CNS = system: SF-295 CNS
SF-539 CNS = system: SF-539 CNS
SK-MEL-2 melanoma = system: SK-MEL-2 melanoma
SK-MEL-28 melanoma = system: SK-MEL-28 melanoma
SK-MEL-5 melanoma = system: SK-MEL-5 melanoma
SK-OV-3 ovarian = system: SK-OV-3 ovarian
SN12C renal = system: SN12C renal
SNB-19 CNS = system: SNB-19 CNS
SNB-75 CNS = system: SNB-75 CNS
SR leukemia = system: SR leukemia
SW-620 colon = system: SW-620 colon
T-47D breast = system: T-47D breast
TK-10 renal = system: TK-10 renal
U251 CNS = system: U251 CNS
UACC-257 melanoma = system: UACC-257 melanoma
UACC-62 melanoma = system: UACC-62 melanoma
UO-31 renal = system: UO-31 renal

Nc1ccc([As](=O)(O)O)c(O)c1
GI50 (786-0 renal): > 100 µM
TGI (786-0 renal): > 100 µM
GI50 (A498 renal): > 100 µM
TGI (A498 renal): > 100 µM
GI50 (A549 NSCLC): > 100 µM
TGI (A549 NSCLC): > 100 µM
GI50 (ACHN renal): > 100 µM
TGI (ACHN renal): > 100 µM
GI50 (BT-549 breast): > 100 µM
TGI (BT-549 breast): > 100 µM
GI50 (CAKI-1 renal): > 100 µM
TGI (CAKI-1 renal): > 100 µM
GI50 (CCRF-CEM leukemia): > 100 µM
TGI (CCRF-CEM leukemia): > 100 µM
GI50 (COLO 205 colon): > 100 µM
TGI (COLO 205 colon): > 100 µM
GI50 (DU-145 prostate): > 100 µM
TGI (DU-145 prostate): > 100 µM
GI50 (EKVX NSCLC): > 100 µM
TGI (EKVX NSCLC): > 100 µM
GI50 (HCC-2998 colon): > 100 µM
TGI (HCC-2998 colon): > 100 µM
GI50 (HCT-116 colon): > 100 µM
TGI (HCT-116 colon): > 100 µM
GI50 (HCT-15 colon): > 100 µM
TGI (HCT-15 colon): > 100 µM
GI50 (HL-60(TB) leukemia): > 100 µM
TGI (HL-60(TB) leukemia): > 100 µM
GI50 (HOP-62 NSCLC): > 100 µM
TGI (HOP-62 NSCLC): > 100 µM
GI50 (HOP-92 NSCLC): > 100 µM
TGI (HOP-92 NSCLC): > 100 µM
GI50 (HS 578T breast): > 100 µM
TGI (HS 578T breast): > 100 µM
GI50 (HT29 colon): > 100 µM
TGI (HT29 colon): > 100 µM
GI50 (IGROV1 ovarian): > 100 µM
TGI (IGROV1 ovarian): > 100 µM
GI50 (K-562 leukemia): > 100 µM
TGI (K-562 leukemia): > 100 µM
GI50 (KM12 colon): > 100 µM
TGI (KM12 colon): > 100 µM
GI50 (LOX IMVI melanoma): > 100 µM
TGI (LOX IMVI melanoma): > 100 µM
GI50 (M14 melanoma): > 100 µM
TGI (M14 melanoma): > 100 µM
GI50 (MALME-3M melanoma): > 100 µM
TGI (MALME-3M melanoma): > 100 µM
GI50 (MCF7 breast): > 100 µM
TGI (MCF7 breast): > 100 µM
GI50 (MDA-MB-231 breast): > 100 µM
TGI (MDA-MB-231 breast): > 100 µM
GI50 (MDA-MB-435): > 100 µM
TGI (MDA-MB-435): > 100 µM
GI50 (MDA-N): > 100 µM
TGI (MDA-N): > 100 µM
GI50 (MOLT-4 leukemia): > 100 µM
TGI (MOLT-4 leukemia): > 100 µM
GI50 (NCI-H226 lung): > 100 µM
TGI (NCI-H226 lung): > 100 µM
GI50 (NCI-H23 lung): > 100 µM
TGI (NCI-H23 lung): > 100 µM
GI50 (NCI-H322M lung): > 100 µM
TGI (NCI-H322M lung): > 100 µM
GI50 (NCI-H460 lung): > 100 µM
TGI (NCI-H460 lung): > 100 µM
GI50 (NCI-H522 lung): > 100 µM
TGI (NCI-H522 lung): > 100 µM
GI50 (NCI/ADR-RES ovarian): > 100 µM
TGI (NCI/ADR-RES ovarian): > 100 µM
GI50 (OVCAR-3 ovarian): > 100 µM
TGI (OVCAR-3 ovarian): > 100 µM
GI50 (OVCAR-4 ovarian): > 100 µM
TGI (OVCAR-4 ovarian): > 100 µM
GI50 (OVCAR-5 ovarian): > 100 µM
TGI (OVCAR-5 ovarian): > 100 µM
GI50 (OVCAR-8 ovarian): > 100 µM
TGI (OVCAR-8 ovarian): > 100 µM
GI50 (PC-3 prostate): > 100 µM
TGI (PC-3 prostate): > 100 µM
GI50 (RPMI-8226 leukemia): > 100 µM
TGI (RPMI-8226 leukemia): > 100 µM
GI50 (RXF 393 renal): > 100 µM
TGI (RXF 393 renal): > 100 µM
GI50 (SF-268 CNS): > 100 µM
TGI (SF-268 CNS): > 100 µM
GI50 (SF-295 CNS): > 100 µM
TGI (SF-295 CNS): > 100 µM
GI50 (SF-539 CNS): > 100 µM
TGI (SF-539 CNS): > 100 µM
GI50 (SK-MEL-2 melanoma): > 100 µM
TGI (SK-MEL-2 melanoma): > 100 µM
GI50 (SK-MEL-28 melanoma): > 100 µM
TGI (SK-MEL-28 melanoma): > 100 µM
GI50 (SK-MEL-5 melanoma): > 100 µM
TGI (SK-MEL-5 melanoma): > 100 µM
GI50 (SK-OV-3 ovarian): > 100 µM
TGI (SK-OV-3 ovarian): > 100 µM
GI50 (SN12C renal): > 100 µM
TGI (SN12C renal): > 100 µM
GI50 (SNB-19 CNS): > 100 µM
TGI (SNB-19 CNS): > 100 µM
GI50 (SNB-75 CNS): > 100 µM
TGI (SNB-75 CNS): > 100 µM
GI50 (SR leukemia): > 100 µM
TGI (SR leukemia): > 100 µM
GI50 (SW-620 colon): > 100 µM
TGI (SW-620 colon): > 100 µM
GI50 (T-47D breast): > 100 µM
TGI (T-47D breast): > 100 µM
GI50 (TK-10 renal): > 100 µM
TGI (TK-10 renal): > 100 µM
GI50 (U251 CNS): > 100 µM
TGI (U251 CNS): > 100 µM
GI50 (UACC-257 melanoma): > 100 µM
TGI (UACC-257 melanoma): > 100 µM
GI50 (UACC-62 melanoma): > 100 µM
TGI (UACC-62 melanoma): > 100 µM
GI50 (UO-31 renal): > 100 µM
TGI (UO-31 renal): > 100 µM
